The record followed here is patent US12173004B2, “Pharmaceutical compositions comprising heterocycle fused gamma carboline prodrugs” (INTRA-CELLULAR THERAPIES, INC., priority 2017, dated 2024).

As usually defined, the AUC(0-t) is the area under the concentration-time curve up to a stated or last time point. A low value points to less exposure. What is called Cmax is the peak of the concentration-time curve. In general, inhibition refers to how much of the control response was suppressed. A word on the Ki: it is a dissociation constant, usually derived from enzyme kinetics or from competition with a known ligand.

One series in a line: in vivo. The following applies: mouse.
For series [1] the following is noted: mouse, in vivo, sc, 0.1 mg/kg.
Another series deals with SERT (Homo sapiens (Human), UniProt P31645). The series can be described thus: biochemical. To be noted: read-out: maximum inhibition SERT.
The next series deals with 5-HT2A (Homo sapiens (Human), UniProt P28223). To be noted: read-out: Ki (nM) 5-HT2A.

Turning to `O=C1CN2c3c(cccc3[C@@H]3CN(CCCOc4ccc(F)cc4)CC[C@@H]32)N1` [Example 2, (6bR,10aS)-8-(3-(4-fluorophenoxy)propyl)-6b,7,8,9,10,10a-hexahydro-1H-pyrido[3′,4′:4,5]pyrrolo[1,2,3-de]quinoxalin-2(3H)-one], the exposure AUC(0-t) in “in vivo” (brain, po, 10 mg/kg) turned out to be 2490 ng·h/mL; in “in vivo” (brain, sc, 0.1 mg/kg), 191 ng·h/mL; in the series “in vivo” (plasma, sc, 0.1 mg/kg), 67 ng·h/mL. This compound also had a Cmax in “in vivo” (plasma, sc, 0.1 mg/kg) of 31.1 ng/mL. Moreover, in series [1], the “Plasma (ng/mL), 4 hr” value is on record as 4.7 ng/mL.
For the compound `O=C1CN2c3c(cccc3[C@@H]3CN(CCCC(=O)c4ccc(F)cc4)CC[C@@H]32)N1` [Example 1], at SERT, the inhibition at 0.24 µM was 44%. The Ki at 5-HT2A came to 11 nM.
